# Marks after values point to notes of the source that are not given here.
# Columns and labels:
# [1] = test system: Staphylococcus aureus ATCC 25923; type: cell-based; settings: lowest concentration killing at least 99.9% of initial inoculum; three independent experiments
# Protocol: The peptide antibacterial activity was determined against both gram-positive and gram-negative bacteria strains, including Escherichia coli ATCC 25922, Escherichia coli UB1005, Salmonella enterica serovar typhimurium C77-31, Staphylococcus aureus ATCC 29213, Staphylococcus aureus ATCC 25923, Bacillus subtilis CMCC 63501, and Staphylococcus epidermidis ATCC 12228. Clinically isolated Escherichia coli EC183 was provided by the 4th Affiliated Hospital of Harbin Medical University. MIC of the peptides was measured using a modified version of the National Committee for Clinical Laboratory Standards (NCCLS) broth microdilution method as described previously. The bacterial strains were inoculated and grown to mid-log phase in fresh Mueller-Hinton broth (MHB) at 37 °C. Bacterial inoculum suspensions were prepared at a final concentration of approximately 1 × 10^5 CFU/ml. Peptides were 2-fold serially diluted to make different concentrations, from 0.5 to 256 μM. Equal volumes of inoculum suspensions were then added to each well of a sterile 96-well plate with different concentrations of peptides, and the plate was incubated for 18 h at 37 °C. Broth with or without bacteria was employed as the positive control or the negative control, respectively. MIC was defined as the lowest concentration of peptides that prevented visible turbidity by visual inspection. […]
# [2] = test system: human red blood cells (hRBCs); assay: Hemolytic activity; type: cell-based; settings: human erythrocytes in PBS, 1 h at 37 °C, absorbance 570 nm, 0.1% Triton X-100 positive control; highest tested 128 μM; three independent experiments
# Protocol: The hemolytic activity of the peptides was measured as the amount of hemoglobin released by the lysis of human erythrocytes. The experimental protocol was reviewed and approved by the ethics committee of the Northeast Agricultural University Hospital, and the experimental method was carried out in accordance with the approved guidelines and regulations. Briefly, fresh and healthy human blood cells (hRBCs) in a polycarbonate tube containing heparin were centrifuged at 1,000 × g for 5 min at 4 °C. The erythrocytes obtained were washed three times and re-suspended in PBS. Then, the erythrocyte solution of 50 μl was incubated with 50 μl of the respective peptides dissolved in PBS for 1 h at 37 °C. Intact erythrocytes were pelleted by centrifugation at 1,000 × g for 5 min at 4 °C, and the supernatant was transferred to a new 96-well plate. Hemoglobin release was monitored using an absorbance microplate reader (TECAN GENios F129004; TECAN, Austria) at 570 nm. hRBCs in PBS and 0.1% Triton X-100 were employed as negative and positive controls, respectively. MHC was defined as the minimal peptide concentration that caused 5% hemolysis. Three independent experiments were performed in duplicate.
structure (smiles),measurement,setting,value
"CC[C@H](C)[C@H](NC(=O)CN)C(=O)NCC(=O)N[C@@H](C)C(=O)N[C@H](C(=O)N[C@@H](CC(C)C)C(=O)N[C@@H](CCCCN)C(=O)N[C@H](C(=O)N[C@@H](CC(C)C)C(=O)N[C@H](C(=O)N[C@H](C(=O)NCC(=O)N[C@@H](CC(C)C)C(=O)N1CCC[C@H]1C(=O)N[C@@H](C)C(=O)N[C@@H](CC(C)C)C(=O)N[C@H](C(=O)N[C@@H](CO)C(=O)N[C@@H](Cc1c[nH]c2ccccc12)C(=O)N[C@H](C(=O)N[C@@H](CCCCN)C(=O)N[C@@H](CCCNC(=N)N)C(=O)N[C@@H](CCCCN)C(=O)N[C@@H](CCCNC(=N)N)C(=O)N[C@@H](CCC(N)=O)C(=O)N[C@@H](CCC(N)=O)C(N)=O)[C@@H](C)CC)[C@@H](C)CC)[C@@H](C)O)[C@@H](C)O)C(C)C)C(C)C [melittin, reference compound]",MBC S. aureus 25923,[1],8^c (8) μM
same,MHC (minimum hemolytic concentration that caused 5% hemolysis),[2],0.25 µM

# Source: article PMC4890124, “Antimicrobial activity, improved cell selectivity and mode of action of short PMAP-36-derived peptides against bacteria and Candida” (Scientific Reports, 2016)
